Measured values from US20260384438A1, “PYRROLOPYRIMIDINE CARBOXAMIDES” (published 2026).

By UniProt entry, the sequences of proteins in these tests, tags left out. Residues count along the entry.
UniProt P10635, whole entry: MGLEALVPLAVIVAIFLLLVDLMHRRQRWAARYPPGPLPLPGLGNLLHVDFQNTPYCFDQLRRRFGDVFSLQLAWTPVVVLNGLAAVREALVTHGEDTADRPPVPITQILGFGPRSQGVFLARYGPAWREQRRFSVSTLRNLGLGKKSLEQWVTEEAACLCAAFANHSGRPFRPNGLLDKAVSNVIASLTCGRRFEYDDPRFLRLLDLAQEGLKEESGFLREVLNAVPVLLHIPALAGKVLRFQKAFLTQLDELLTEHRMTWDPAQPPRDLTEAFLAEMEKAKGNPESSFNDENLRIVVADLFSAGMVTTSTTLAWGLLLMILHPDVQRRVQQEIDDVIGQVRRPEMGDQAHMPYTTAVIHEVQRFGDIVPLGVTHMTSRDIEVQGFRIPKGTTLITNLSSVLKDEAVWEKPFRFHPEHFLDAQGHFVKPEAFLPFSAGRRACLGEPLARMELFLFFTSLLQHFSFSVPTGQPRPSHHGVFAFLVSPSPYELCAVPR
UniProt P35462, whole entry: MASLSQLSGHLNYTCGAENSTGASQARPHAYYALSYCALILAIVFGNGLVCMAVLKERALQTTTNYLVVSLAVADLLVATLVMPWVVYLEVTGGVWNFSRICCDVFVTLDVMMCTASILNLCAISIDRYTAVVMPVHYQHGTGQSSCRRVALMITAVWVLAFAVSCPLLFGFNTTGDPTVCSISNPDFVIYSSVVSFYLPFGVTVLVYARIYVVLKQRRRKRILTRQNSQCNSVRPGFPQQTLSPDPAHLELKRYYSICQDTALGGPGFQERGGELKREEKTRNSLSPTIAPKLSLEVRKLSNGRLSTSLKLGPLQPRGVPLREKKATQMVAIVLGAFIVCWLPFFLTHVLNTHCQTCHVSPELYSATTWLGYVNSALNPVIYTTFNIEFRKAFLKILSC
UniProt P41145, whole entry: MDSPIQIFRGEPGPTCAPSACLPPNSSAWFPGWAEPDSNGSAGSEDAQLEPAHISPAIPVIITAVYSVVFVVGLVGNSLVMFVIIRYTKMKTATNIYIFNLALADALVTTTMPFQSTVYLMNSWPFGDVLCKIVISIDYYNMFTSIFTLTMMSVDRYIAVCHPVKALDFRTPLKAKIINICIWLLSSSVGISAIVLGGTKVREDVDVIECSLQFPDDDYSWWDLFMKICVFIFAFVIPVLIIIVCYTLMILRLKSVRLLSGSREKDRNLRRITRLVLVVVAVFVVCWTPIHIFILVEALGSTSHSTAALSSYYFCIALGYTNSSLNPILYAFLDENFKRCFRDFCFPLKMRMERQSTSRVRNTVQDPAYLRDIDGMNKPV
UniProt P17787, 26-502 limits assumed: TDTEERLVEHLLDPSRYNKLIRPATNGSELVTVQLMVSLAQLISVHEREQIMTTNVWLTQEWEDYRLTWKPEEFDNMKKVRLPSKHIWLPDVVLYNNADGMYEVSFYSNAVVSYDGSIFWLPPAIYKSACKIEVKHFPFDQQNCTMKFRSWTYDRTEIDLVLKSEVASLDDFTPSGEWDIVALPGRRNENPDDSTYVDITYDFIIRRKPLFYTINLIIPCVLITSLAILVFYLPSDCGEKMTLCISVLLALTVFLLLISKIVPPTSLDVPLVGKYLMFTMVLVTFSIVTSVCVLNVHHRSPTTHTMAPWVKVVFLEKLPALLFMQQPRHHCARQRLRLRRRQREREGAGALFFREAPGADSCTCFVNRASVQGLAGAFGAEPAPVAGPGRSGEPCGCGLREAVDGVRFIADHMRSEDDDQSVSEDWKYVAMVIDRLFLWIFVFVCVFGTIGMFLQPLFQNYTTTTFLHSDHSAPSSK
UniProt P43681, 29-627 limits assumed: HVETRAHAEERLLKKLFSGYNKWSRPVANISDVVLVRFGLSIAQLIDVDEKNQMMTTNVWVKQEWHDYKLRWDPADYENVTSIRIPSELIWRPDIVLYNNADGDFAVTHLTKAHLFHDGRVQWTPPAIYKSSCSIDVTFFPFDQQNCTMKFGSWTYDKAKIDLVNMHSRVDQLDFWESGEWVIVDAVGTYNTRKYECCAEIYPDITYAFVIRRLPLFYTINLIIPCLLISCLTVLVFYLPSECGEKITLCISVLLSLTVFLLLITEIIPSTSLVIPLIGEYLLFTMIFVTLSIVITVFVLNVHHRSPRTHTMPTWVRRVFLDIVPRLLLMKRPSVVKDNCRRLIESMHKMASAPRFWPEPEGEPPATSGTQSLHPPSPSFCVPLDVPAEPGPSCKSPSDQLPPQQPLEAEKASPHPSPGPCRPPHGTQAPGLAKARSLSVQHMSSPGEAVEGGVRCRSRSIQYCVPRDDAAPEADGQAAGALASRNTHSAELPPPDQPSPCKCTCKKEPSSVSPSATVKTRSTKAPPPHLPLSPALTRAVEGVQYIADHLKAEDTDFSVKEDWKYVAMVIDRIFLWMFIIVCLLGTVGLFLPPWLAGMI
UniProt P35368, whole entry: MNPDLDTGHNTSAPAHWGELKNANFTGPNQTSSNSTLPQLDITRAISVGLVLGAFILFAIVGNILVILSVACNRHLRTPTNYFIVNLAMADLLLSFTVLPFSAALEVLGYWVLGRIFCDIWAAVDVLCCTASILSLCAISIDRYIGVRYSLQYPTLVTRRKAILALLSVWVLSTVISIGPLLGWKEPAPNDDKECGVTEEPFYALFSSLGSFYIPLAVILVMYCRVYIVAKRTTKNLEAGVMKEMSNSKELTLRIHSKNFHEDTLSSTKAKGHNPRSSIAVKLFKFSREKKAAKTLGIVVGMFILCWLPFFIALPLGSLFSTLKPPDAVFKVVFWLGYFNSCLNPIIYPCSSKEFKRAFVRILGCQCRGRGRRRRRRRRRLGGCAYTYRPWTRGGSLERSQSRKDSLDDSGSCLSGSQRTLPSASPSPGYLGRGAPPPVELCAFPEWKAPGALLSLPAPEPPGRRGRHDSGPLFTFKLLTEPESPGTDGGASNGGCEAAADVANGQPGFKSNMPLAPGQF
UniProt P31645, whole entry: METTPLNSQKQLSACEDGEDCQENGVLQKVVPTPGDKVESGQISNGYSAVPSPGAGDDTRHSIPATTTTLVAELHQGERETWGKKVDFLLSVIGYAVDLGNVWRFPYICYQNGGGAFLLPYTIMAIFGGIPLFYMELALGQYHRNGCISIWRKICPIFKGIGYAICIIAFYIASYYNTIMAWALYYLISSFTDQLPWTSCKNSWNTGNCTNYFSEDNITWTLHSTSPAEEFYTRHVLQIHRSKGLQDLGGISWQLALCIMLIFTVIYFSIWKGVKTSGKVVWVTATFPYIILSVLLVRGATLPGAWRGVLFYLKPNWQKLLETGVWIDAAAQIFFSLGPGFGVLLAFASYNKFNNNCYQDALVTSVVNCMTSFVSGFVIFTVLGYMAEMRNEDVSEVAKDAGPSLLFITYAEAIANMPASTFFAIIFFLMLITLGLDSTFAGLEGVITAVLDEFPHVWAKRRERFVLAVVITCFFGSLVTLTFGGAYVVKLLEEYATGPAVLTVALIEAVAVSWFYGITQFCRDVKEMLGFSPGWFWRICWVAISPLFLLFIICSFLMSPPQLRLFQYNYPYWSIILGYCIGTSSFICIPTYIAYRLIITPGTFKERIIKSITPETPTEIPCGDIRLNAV
UniProt P37231, whole entry: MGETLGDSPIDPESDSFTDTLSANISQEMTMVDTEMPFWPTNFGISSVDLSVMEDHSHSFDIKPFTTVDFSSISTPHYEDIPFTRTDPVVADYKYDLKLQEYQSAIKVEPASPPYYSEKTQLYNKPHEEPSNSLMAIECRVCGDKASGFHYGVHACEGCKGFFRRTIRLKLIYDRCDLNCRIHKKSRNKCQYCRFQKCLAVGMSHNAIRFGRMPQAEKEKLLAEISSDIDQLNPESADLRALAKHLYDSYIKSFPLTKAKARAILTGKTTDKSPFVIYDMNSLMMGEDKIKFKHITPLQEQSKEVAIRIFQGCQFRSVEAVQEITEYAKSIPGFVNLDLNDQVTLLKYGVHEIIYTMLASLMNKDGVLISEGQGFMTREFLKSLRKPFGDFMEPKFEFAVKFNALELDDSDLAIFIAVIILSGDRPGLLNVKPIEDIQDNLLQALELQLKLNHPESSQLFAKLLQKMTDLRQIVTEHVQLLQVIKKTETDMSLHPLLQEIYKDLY
UniProt P30536, whole entry: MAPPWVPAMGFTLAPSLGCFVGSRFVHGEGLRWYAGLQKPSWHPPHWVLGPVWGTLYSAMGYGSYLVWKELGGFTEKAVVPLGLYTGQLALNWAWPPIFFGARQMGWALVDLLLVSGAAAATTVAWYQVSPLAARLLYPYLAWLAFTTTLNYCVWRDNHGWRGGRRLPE
UniProt P32238, whole entry: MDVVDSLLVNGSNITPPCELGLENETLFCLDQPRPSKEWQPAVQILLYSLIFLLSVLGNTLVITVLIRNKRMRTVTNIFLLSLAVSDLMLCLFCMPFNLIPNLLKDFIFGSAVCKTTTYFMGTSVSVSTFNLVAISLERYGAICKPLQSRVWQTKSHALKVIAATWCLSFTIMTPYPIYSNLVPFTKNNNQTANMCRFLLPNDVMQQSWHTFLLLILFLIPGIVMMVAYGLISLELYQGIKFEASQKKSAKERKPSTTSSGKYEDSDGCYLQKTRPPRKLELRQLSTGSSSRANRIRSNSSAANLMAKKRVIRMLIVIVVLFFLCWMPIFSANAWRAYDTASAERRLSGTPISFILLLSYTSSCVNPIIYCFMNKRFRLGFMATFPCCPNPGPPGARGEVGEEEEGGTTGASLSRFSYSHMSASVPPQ
UniProt P04150, whole entry: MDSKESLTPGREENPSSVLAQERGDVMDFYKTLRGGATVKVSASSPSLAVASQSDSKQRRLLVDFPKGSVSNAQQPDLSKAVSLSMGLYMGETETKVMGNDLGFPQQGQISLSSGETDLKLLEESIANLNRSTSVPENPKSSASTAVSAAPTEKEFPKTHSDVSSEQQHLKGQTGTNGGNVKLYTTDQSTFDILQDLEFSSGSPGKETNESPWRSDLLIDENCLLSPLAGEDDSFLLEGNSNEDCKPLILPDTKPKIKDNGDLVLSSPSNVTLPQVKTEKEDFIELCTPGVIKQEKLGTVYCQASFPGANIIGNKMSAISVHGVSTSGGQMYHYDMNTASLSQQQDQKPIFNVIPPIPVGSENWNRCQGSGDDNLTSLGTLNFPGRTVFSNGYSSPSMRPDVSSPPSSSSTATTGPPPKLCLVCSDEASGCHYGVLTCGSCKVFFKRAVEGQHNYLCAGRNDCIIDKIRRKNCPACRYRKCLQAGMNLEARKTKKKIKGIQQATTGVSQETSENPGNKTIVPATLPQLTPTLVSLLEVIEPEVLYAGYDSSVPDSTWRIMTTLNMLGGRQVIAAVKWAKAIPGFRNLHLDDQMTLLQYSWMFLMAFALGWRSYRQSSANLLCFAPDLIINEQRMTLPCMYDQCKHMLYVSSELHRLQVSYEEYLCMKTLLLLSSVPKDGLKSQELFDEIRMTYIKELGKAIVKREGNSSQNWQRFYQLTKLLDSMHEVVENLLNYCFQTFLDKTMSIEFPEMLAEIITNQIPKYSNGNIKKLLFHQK
UniProt P10275, whole entry: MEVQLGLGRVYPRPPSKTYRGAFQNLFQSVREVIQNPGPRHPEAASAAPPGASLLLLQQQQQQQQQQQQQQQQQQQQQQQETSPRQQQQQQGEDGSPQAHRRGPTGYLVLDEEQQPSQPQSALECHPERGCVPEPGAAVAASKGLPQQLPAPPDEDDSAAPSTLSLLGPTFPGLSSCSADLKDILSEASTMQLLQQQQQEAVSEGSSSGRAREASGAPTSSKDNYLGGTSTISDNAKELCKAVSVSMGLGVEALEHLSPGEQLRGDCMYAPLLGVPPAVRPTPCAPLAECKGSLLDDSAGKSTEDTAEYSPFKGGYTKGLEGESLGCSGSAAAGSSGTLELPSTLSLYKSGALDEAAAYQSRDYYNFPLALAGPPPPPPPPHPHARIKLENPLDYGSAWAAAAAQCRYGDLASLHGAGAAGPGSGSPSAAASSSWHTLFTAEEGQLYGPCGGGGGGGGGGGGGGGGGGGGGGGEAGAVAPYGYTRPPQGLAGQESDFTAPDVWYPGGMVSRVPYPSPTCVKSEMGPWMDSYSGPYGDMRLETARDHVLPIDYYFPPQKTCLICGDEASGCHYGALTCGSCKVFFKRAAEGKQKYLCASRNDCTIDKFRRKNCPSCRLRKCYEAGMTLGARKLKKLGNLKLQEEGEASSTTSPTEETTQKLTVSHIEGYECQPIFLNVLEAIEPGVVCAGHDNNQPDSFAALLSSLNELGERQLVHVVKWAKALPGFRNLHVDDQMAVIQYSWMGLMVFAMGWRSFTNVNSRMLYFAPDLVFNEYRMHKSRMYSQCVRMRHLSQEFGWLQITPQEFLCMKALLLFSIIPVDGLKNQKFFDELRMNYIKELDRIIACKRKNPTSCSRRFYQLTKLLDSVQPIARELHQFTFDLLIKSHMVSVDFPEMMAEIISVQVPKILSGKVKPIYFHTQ

Legend:
[1] = In vivo tolerability, combination with gemcitabine, female SCID mice
[2] = In vivo pharmacokinetics in female SCID mice (P.O., 10/30/100 mg/kg)
[3] = In vivo pharmacokinetics in intact male Han Wistar rats (I.V.); settings: intact male Han Wistar rat, I.V. 0.5 mg/kg
[4] = In vivo pharmacokinetics in bile-duct-cannulated male Han Wistar rats (I.V.); settings: BDC male Han Wistar rat, I.V. 0.5 mg/kg
CYP2D6 = CYP2D6 (Homo sapiens, UniProt P10635); assay: CYP inhibition, CYP2D6; settings: read-out: CYP2D6 inhibition IC50; HLM, bufuralol 5 μM
CYP2C9 = CYP2C9 (Homo sapiens, UniProt P11712); assay: CYP inhibition, CYP2C9; settings: read-out: CYP2C9 inhibition IC50; HLM, diclofenac 10 μM
PKMYT1 = assay: In vivo PKMYT1 target engagement (tumor phospho-CDK1 Thr14) in OVCAR3 tumor-bearing SCID mice; settings: 10, 30, 100 mg/kg BID oral, all three doses, 21 days
[5] = In vivo pharmacokinetics in male Han Wistar rats at high dose (P.O., 10/30/100 mg/kg)
SW620 tumors = assay: Human colorectal SW620 cell line-derived xenograft model in female athymic nude mice
[6] = In vitro biotransformation in human hepatocytes
Log D octanol/PBS pH 7.4 = settings: octanol/PBS pH 7.4, 1 μM
[7] = Metabolic stability in human hepatocytes in suspension (hHEP); settings: 1 μM
OVCAR3 (CCNE1 amp) = assay: CellTiter-Glo growth inhibition, OVCAR3 (CCNE1 amp)
5-HT3A receptor = 5-HT3A receptor (Homo sapiens, UniProt P46098); assay: Secondary pharmacology, radioligand binding
ETA endothelin receptor = ETA endothelin receptor (Homo sapiens, UniProt P25101); assay: Secondary pharmacology, radioligand binding
D3 dopamine receptor = D3 dopamine receptor (Homo sapiens, UniProt P35462); assay: Secondary pharmacology, radioligand binding
NK1 neurokinin receptor = NK1 neurokinin receptor (Homo sapiens, UniProt P25103); assay: Secondary pharmacology, radioligand binding
κ opioid receptor = κ opioid receptor (Homo sapiens, UniProt P41145); assay: Secondary pharmacology, radioligand binding
α4 nicotinic receptor = α4 nicotinic receptor (Homo sapiens, UniProt P17787+P43681); assay: Secondary pharmacology, radioligand binding
α1B adrenoceptor = α1B adrenoceptor (Homo sapiens, UniProt P35368); assay: Secondary pharmacology, radioligand binding
[8] = system: NMDA receptor (Phencyclidine site); assay: Secondary pharmacology, radioligand binding
D1 dopamine receptor = D1 dopamine receptor (Homo sapiens, UniProt P21728); assay: Secondary pharmacology, radioligand binding
[9] = target: Serotonin Transporter (SERT) (Homo sapiens, UniProt P31645); assay: Secondary pharmacology, radioligand binding
M5 muscarinic receptor = M5 muscarinic receptor (Homo sapiens, UniProt P08912); assay: Secondary pharmacology, radioligand binding
[10] = target: Peroxisome proliferator-activated receptor-γ (Homo sapiens, UniProt P37231); assay: Secondary pharmacology, radioligand binding
[11] = target: Translocator Protein (18 kDa) (TSPO) (Homo sapiens, UniProt P30536); assay: Secondary pharmacology, radioligand binding
[12] = target: CCK1 cholecystokinin receptor (Homo sapiens, UniProt P32238); assay: Secondary pharmacology, radioligand binding
[13] = target: Glucocorticoid Receptor NR3C1 (Homo sapiens, UniProt P04150); assay: Secondary pharmacology, radioligand binding
Androgen receptor = Androgen receptor (Homo sapiens, UniProt P10275); assay: Secondary pharmacology, radioligand binding
[14] = human hepatocytes, 5 μM, 180 min

SMILES: Cc1nc(C(F)(F)F)c2c(C(N)=O)c(N)n(-c3c(C)ccc(O)c3C)c2n1 (single isomer, unassigned)
- body weight loss, paw or tail swelling, adverse events ([1]; 100 mg/kg BID + gemcitabine 20 mg/kg weekly, 28 days): No significant loss of body weight, paw or tail swelling, or other noticeable adverse events
- free Cmax ([1]; 100 mg/kg BID oral, with gemcitabine, SCID mice): approximately 5.7 μM
- AUC ([2]; P.O. 10 mg/kg): 4.2 µM·h
- Cmax ([2]; P.O. 10 mg/kg): 1300 nM
- Tmax ([2]; P.O. 10 mg/kg): 0.5 h
- t1/2 ([2]; P.O. 10 mg/kg): 4.4 h
- AUC ([2]; P.O. 30 mg/kg): 9.1 µM·h
- Cmax ([2]; P.O. 30 mg/kg): 3600 nM
- Tmax ([2]; P.O. 30 mg/kg): 0.5 h
- t1/2 ([2]; P.O. 30 mg/kg): 4.6 h
- AUC ([2]; P.O. 100 mg/kg): 25 µM·h
- Cmax ([2]; P.O. 100 mg/kg): 8700 nM
- Tmax ([2]; P.O. 100 mg/kg): 0.5 h
- t1/2 ([2]; P.O. 100 mg/kg): 4.7 h
- AUC [3]: 1.34 µM·h
- CL [3]: 16.7 mL/min/kg
- Cmax [3]: 1400 nM
- Tmax [3]: 1.8 min
- VSS [3]: 7.87 L/kg
- t1/2 [3]: 10.3 h
- AUC [4]: 0.868 µM·h
- CL [4]: 27.9 mL/min/kg
- Cmax [4]: 1830 nM
- Tmax [4]: 4.8 min
- VSS [4]: 1.19 L/kg
- t1/2 [4]: 2.03 h
- IC50 (CYP2D6): > 30 µM
- IC50 (CYP2C9): > 30 µM
- PKMYT1 kinase inhibition versus vehicle (PKMYT1): significant PKMTYT1 kinase inhibition
- AUC ([5]; P.O. 10 mg/kg): 12.2 µM·h
- Cmax ([5]; P.O. 10 mg/kg): 1390 nM
- Tmax ([5]; P.O. 10 mg/kg): 0.667 h
- t1/2 ([5]; P.O. 10 mg/kg): 6.77 h
- AUC ([5]; P.O. 30 mg/kg): 41.8 µM·h
- Cmax ([5]; P.O. 30 mg/kg): 4520 nM
- Tmax ([5]; P.O. 30 mg/kg): 0.333 h
- t1/2 ([5]; P.O. 30 mg/kg): 9.10 h
- combination benefit (SW620 tumors; 10 mg/kg BID + irinotecan hydrochloride): Combination benefit was observed but less pronounced
- tumor regression (SW620 tumors; 100 mg/kg BID + 50 mg/kg irinotecan hydrochloride i.p. once weekly, P<0.01): 18%
- tumor growth inhibition (SW620 tumors; 100 mg/kg BID monotherapy): did not result in tumor growth inhibition
- Glucuronidation [6, 14]: m (minor (>1% but ≤10%))
- Oxidation [6, 14]: m (minor (>1% but ≤10%))
- dominant routes of biotransformations ([6]; in vitro hepatocytes): oxidation and glucuronidation
- LogD (Log D octanol/PBS pH 7.4): 1.36
- Hhep (CLint) [7]: <1.324 μl/min/1E6
- GI50 (OVCAR3 (CCNE1 amp); read-out: GI50 VALUES, individual values, 7 days CTG): 2.88 µM and 1.89 µM and 1.06 µM
- GI50 (OVCAR3 (CCNE1 amp); read-out: MEAN GI50 (N = 3), mean of N = 3, 7 days CTG): 1.94 µM
- Pharmacological mode of action (5-HT3A receptor): Inactive
- Ki (5-HT3A receptor; read-out: Binding Ki): > 100 µM
- Pharmacological mode of action (ETA endothelin receptor): Inactive
- Ki (ETA endothelin receptor; read-out: Binding Ki): > 100 µM
- Pharmacological mode of action (D3 dopamine receptor): Inactive
- Ki (D3 dopamine receptor; read-out: Binding Ki): > 100 µM
- Pharmacological mode of action (NK1 neurokinin receptor): Inactive
- Ki (NK1 neurokinin receptor; read-out: Binding Ki): > 100 µM
- Pharmacological mode of action (κ opioid receptor): Inactive
- Ki (κ opioid receptor; read-out: Binding Ki): > 100 µM
- Pharmacological mode of action (α4 nicotinic receptor): Inactive
- Ki (α4 nicotinic receptor; read-out: Binding Ki): > 100 µM
- Pharmacological mode of action (α1B adrenoceptor): Inactive
- Ki (α1B adrenoceptor; read-out: Binding Ki): > 100 µM
- Pharmacological mode of action [8]: Inactive
- Ki ([8]; read-out: Binding Ki): > 100 µM
- Pharmacological mode of action (D1 dopamine receptor): Inactive
- Ki (D1 dopamine receptor; read-out: Binding Ki): > 100 µM
- Pharmacological mode of action [9]: Inactive
- Ki ([9]; read-out: Binding Ki): > 100 µM
- Pharmacological mode of action (M5 muscarinic receptor): Inactive
- Ki (M5 muscarinic receptor; read-out: Binding Ki): > 100 µM
- Pharmacological mode of action [10]: Inactive
- Ki ([10]; read-out: Binding Ki): > 100 µM
- Pharmacological mode of action [11]: Inactive
- Ki ([11]; read-out: Binding Ki): > 100 µM
- Pharmacological mode of action [12]: Inactive
- Ki ([12]; read-out: Binding Ki): > 100 µM
- Pharmacological mode of action [13]: Inactive
- Ki ([13]; read-out: Binding Ki): > 100 µM
- Pharmacological mode of action (Androgen receptor): Inactive
- Ki (Androgen receptor; read-out: Binding Ki): > 100 µM

Where “and” joins values, the source holds several entries; their conditions need not be identical. Identical values can stand only once. Like-named read-outs stand apart in the source and are kept apart here.
